In ChEMBL document CHEMBL4482311, “Modulators of Prostate-Specific G-Protein Receptor (PSGR/OR51E2) and Methods of Using Same” (2018):

Target: T1, Olfactory receptor 51E2 (Homo sapiens) (UniProt Q9H255)
T1 sequence (whole entry): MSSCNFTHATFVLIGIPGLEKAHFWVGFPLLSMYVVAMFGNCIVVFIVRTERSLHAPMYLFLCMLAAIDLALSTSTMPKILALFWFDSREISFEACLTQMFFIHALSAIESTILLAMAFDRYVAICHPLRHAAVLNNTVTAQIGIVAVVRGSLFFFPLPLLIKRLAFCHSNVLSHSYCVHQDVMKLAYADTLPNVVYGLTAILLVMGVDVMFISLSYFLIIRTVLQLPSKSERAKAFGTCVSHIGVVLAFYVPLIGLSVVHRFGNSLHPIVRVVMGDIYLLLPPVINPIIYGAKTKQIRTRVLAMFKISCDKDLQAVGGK
Conditions: LNCaP, 10 uM

inhibition: Active
Structure (SMILES): CC1=C(/C=C/C(C)=C/C=C/C(C)=C\C(=O)O)C(C)(C)CCC1

The source made the active and inactive calls. The rule behind the calls is not given here.
